{"source": "ChEMBL document CHEMBL5113527", "about": "“First-in-Class Hydrazide-Based HDAC6 Selective Inhibitor with Potent Oral Anti-Inflammatory Activity by Attenuating NLRP3 Inflammasome Activation” (J Med Chem, 2022)", "organism": "Homo sapiens", "experiment": "Selectivity index, ratio of IC50 for recombinant HDAC1(unknown origin) to IC50 for full length recombinant human HDAC6", "data": [{"smiles": "CCNNC(=O)c1ccc(CN2c3ccccc3C=Cc3ccncc32)cc1", "values": [{"measurement": "Ratio IC50", "result": 80}]}]}
